From ChEMBL document CHEMBL4261630

The chains behind the UniProt entries cited, without tags or fusion partners. Where a name states a change or a piece, a line headed by the entry shows the natural chain unless it says otherwise.
UniProt P62575: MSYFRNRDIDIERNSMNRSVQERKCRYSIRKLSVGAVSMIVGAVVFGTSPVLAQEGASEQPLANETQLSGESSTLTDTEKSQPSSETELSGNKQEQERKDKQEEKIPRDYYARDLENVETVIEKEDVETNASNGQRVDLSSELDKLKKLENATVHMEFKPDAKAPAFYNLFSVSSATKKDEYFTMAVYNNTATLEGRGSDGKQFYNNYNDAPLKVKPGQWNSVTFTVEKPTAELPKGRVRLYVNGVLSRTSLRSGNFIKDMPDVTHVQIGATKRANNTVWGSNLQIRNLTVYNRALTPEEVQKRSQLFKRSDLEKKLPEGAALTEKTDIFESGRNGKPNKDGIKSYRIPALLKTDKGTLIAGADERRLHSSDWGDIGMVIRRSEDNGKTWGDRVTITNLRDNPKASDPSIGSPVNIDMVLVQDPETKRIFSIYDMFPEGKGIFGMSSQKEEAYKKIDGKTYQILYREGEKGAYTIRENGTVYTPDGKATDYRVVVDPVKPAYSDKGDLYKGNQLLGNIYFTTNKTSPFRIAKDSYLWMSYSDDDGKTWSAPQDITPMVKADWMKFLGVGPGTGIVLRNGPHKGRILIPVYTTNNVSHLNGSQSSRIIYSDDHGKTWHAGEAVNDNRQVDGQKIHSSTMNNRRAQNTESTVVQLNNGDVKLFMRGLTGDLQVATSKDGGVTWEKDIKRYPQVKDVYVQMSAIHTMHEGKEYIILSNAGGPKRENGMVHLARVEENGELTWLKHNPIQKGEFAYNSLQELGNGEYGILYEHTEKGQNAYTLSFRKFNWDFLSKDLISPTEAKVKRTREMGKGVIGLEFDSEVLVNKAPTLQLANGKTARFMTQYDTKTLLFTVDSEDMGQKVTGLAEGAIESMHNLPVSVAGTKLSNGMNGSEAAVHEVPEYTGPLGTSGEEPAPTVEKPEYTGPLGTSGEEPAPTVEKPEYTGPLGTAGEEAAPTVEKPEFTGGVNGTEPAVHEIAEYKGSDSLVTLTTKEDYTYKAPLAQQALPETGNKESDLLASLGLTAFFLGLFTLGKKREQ

Assays:
[1] = tested on: Bifidobacterium longum subsp. infantis; conditions: ATCC 15697, at 1 mM
Sialidase A = Sialidase A (Streptococcus pneumoniae, UniProt P62575); assay: Inhibition of Streptococcus pneumoniae NanA using Neu5Acalpha2-3GalbetapNP as substrate after 30 mins by colorimetric assay
[2] = tested on: Bifidobacterium longum subsp. infantis; conditions: ATCC 15697, at 0.1 mM

## CC(=O)N[C@H]1[C@H]([C@H](O)[C@H](O)CO)OC(C(=O)O)=C[C@@H]1O [NEU5AC2EN]
[1]
  inhibition: 91.1%
Sialidase A
  IC50: 10 µM
[2]
  inhibition: 66.7%
